# Measured values from PubChem BioAssay AID731 (The Scripps Research Institute Molecular Screening Center, 2007).
# Amino acid sequences for entries named in this document (tags omitted). Residues count along the entry.
# UniProt P37231, 232-505 limits assumed: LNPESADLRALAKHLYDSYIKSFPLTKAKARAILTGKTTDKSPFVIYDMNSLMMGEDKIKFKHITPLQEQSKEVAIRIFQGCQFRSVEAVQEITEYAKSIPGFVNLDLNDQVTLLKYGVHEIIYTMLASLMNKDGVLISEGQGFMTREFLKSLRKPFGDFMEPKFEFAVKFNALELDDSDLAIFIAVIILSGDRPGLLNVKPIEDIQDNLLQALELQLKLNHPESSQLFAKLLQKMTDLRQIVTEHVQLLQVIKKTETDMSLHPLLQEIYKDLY
# UniProt Q9Y6Q9, whole entry partner: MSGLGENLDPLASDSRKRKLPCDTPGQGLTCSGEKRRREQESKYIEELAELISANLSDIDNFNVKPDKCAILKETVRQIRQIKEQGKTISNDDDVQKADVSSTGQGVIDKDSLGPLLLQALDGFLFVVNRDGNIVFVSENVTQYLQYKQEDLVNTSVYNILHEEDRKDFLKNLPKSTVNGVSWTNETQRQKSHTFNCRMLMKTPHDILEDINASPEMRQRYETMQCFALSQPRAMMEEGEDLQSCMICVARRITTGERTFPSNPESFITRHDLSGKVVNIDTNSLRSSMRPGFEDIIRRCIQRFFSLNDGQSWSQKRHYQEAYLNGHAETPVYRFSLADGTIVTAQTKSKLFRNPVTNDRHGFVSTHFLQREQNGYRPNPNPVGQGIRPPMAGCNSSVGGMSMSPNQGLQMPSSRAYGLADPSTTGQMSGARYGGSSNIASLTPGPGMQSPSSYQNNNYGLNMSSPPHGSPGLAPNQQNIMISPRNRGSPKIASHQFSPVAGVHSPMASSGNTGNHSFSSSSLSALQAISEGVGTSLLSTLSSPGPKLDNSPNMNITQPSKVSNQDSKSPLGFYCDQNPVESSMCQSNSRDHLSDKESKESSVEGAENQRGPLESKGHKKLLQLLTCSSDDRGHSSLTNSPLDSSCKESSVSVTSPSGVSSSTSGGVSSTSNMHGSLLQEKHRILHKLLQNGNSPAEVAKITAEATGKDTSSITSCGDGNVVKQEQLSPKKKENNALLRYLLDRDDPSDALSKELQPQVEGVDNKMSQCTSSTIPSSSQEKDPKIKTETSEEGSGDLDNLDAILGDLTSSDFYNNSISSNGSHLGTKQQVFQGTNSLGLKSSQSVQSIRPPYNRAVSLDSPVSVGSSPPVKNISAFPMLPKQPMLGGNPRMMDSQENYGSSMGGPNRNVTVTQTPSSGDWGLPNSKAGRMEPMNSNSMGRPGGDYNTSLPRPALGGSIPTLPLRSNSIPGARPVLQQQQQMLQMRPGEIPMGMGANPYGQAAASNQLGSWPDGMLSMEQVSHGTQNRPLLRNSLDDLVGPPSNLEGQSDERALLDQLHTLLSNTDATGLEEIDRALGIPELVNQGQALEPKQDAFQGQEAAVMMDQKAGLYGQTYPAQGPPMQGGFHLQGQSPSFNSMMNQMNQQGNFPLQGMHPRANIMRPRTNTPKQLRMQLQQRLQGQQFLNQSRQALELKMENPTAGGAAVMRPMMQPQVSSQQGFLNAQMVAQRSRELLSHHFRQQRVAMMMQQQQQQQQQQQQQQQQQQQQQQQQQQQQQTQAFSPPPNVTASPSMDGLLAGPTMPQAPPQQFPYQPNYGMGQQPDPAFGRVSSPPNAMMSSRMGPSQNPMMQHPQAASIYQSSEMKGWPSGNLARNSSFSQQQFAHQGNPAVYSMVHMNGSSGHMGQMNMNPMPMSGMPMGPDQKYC
# The list shows a part of the results, in another mix than the full data. Some tests of the compounds listed are not included; inactive here does not mean inactive elsewhere. Activity calls are given as the source filed them. Cut-off read from the data, not from the text of the source: active = activation above about 23%; inactive = the rest.
# Target: Peroxisome proliferator-activated receptor gamma (Homo sapiens) (UniProt P37231)
# Test: PPARgamma agonists recruiting SRC-3 coactivator, primary screen, biochemical (AID 731);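 note: 0% = DMSO and 100% = reference agonist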
# Settings: biochemical PPARgamma/SRC-3 coactivator recruitment assay; at 8 µM; active compounds read high
row,Structure (SMILES),activation
1,O=C(NCC1(N2CCCCC2)CCCCC1)c1cc([N+](=O)[O-])ccc1Cl,inactive: -1.8%
2,CC(C)N1C(=O)CC2(CCN(CCOC(=O)C(O)(c3ccccc3)c3ccccc3)CC2)C1=O,inactive: -15.7%
3,Cc1ccccc1C(=O)NCC1(N2CCCCC2)CCCCC1,inactive: 0.64%
4,CN(C)C1CCCC1OC(=O)C(O)(c1ccccc1)c1ccccc1 (centres undefined),inactive: -1.27%
5,C=CCN1CCN(CCOC(=O)C(O)(c2ccccc2)c2ccccc2)CC1,inactive: 1.73%
6,CCN1CCCC(OC(=O)C2(O)c3ccccc3C=Cc3ccccc32)C1 (centres undefined),inactive: -2.5%
7,COc1cccc(C(=O)NCC2(N3CCCCC3)CCCCC2)c1,inactive: -0.62%
8,O=C(OC1CN2CCC1CC2)C(CO)(c1ccccc1)c1ccccc1 (centres undefined),inactive: 3.07%
9,CN(C)c1cccc(C(=O)NCC2(N(C)C)CCCCC2)c1,inactive: -0.54%
